To fix the notation:
T1: LIN28A (human?, UniProt Q9H9Z2 1-209)
T1 sequence: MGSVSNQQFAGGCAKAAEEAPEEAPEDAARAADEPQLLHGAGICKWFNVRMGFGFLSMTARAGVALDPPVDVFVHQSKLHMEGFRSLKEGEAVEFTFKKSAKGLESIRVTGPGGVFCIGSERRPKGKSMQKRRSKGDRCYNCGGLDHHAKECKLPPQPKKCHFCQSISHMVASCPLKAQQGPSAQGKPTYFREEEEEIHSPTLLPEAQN

T2: CIRBP (Homo sapiens, UniProt Q14011 1-172)
T2 sequence: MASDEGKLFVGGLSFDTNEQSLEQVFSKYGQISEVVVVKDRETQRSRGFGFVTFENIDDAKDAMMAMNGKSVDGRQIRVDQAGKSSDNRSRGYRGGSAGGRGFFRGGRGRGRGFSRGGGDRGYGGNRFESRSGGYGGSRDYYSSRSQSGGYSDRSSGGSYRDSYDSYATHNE

T3: DHX36 (Homo sapiens, UniProt Q9H2U1 1-1008)
T3 sequence: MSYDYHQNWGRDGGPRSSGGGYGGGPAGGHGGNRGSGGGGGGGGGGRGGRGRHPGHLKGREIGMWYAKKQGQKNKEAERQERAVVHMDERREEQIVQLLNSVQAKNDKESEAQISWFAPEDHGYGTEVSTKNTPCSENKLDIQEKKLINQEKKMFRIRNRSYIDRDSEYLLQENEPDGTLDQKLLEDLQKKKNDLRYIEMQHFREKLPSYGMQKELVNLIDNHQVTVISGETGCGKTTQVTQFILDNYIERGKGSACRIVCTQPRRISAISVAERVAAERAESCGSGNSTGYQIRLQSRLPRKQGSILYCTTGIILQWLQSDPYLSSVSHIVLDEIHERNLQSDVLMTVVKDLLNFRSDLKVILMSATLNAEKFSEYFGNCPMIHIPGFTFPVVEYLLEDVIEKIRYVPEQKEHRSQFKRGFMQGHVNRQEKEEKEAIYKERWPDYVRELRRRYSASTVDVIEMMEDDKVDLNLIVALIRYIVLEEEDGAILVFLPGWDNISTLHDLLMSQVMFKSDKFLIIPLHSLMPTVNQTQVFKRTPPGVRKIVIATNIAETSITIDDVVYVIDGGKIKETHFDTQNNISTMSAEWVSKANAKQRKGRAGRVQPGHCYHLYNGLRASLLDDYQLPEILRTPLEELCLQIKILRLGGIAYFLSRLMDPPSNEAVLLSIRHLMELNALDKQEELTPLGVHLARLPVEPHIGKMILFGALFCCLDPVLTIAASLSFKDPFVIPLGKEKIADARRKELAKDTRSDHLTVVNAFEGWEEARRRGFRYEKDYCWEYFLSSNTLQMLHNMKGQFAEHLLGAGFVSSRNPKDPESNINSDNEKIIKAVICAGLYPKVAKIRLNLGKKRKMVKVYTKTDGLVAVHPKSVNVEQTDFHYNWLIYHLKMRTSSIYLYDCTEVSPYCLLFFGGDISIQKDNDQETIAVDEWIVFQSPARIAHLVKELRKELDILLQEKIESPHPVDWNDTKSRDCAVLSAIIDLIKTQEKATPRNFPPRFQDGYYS

B1: hsa-mir-650 (structured_RNA)
RNA: GGGAACAUGGAAUAGCUGUAGCUAGAAUGGUGUACGAAGUUUCAGCGGACGUCACCACCAUGGCCGCUGAAGCUUCGUGCAC
B2: hsa-mir-6759 (structured_RNA)
RNA: GGGAAGUUAUUCCAGAGGGACCUACGUUGGUGUACGAAGUUUCAGCGUCUGUUUUCUUCAUGGUUUUCUGACGCUGAAGCUUCGUGCAC
B3: hsa-mir-604 (structured_RNA)
RNA: GGGAAAGAAACCAAGUCCCUCAGGUAAAGGUGUACGAAGUUUCAGCCUCUCGUGUCCACUAGCAGGCAGGUUUUCUGACACAGGGCUGAAGCUUCGUGCAC
B4: hsa-mir-623 (structured_RNA)
RNA: GGGAAGGUCUAGUACUUACUCUCUCGCCGGUGUACGAAGUUUCAGCGGGUUGCAUCCUAAGCUGUGCUGGAGCUUCCCGCUGAAGCUUCGUGCAC
B5: hsa-mir-139 (structured_RNA)
RNA: GGGACUACGAAGGCAGUUCCGGGCAAAUGGUGUACGAAGUUUCAGCUCCAGUGUGGCUCGGAGGCUGGAGCUGAAGCUUCGUGCAC
B6: hsa-mir-192 (structured_RNA)
RNA: GGGACGGUACUUUCGCGUAACUGGUACAGGUGUACGAAGUUUCAGCACAGCCAGUGCUCUCGUCUCCCCUCUGGCUGCGCUGAAGCUUCGUGCAC
B7: hsa-mir-941-4_941-5_941-2_941-3_941-1 (structured_RNA)
RNA: GGGACGAGGAACCCAAACCCCGUAAUACGGUGUACGAAGUUUCAGCACAGCGCCACGGAAGAGGACGCAGCUGAAGCUUCGUGCAC
B8: hsa-mir-218-1 (structured_RNA)
RNA: GGGAAGGCCGUAGUCCGUGAAAGGCAAUGGUGUACGAAGUUUCAGCCCAUGUGGUUGCGAGGUAUGAGUAAAACAUGGGCUGAAGCUUCGUGCAC
B9: hsa-mir-4493 (structured_RNA)
RNA: GGGACGCGACUAACCGGGUAGCAAUACGGGUGUACGAAGUUUCAGCUUCCGGUGAUUAUCACAGCCAUGCCUUUACCUCCAGAAGCUGAAGCUUCGUGCAC
B10: hsa-mir-6514 (structured_RNA)
RNA: GGGAAGCCAUUAUACGCGGAAAUAGCUUGGUGUACGAAGUUUCAGCCUGGCAUUUACGAGUCAGAGUUCUUACAGAGCUGCGCUGAAGCUUCGUGCAC
B11: PARIS_ID11 (structured_RNA)
RNA: GGGACCACUACCACAACGGAAGCCACUAGGUGUACGAAGUUUCAGCUGACUAAAUACUGUCUUUGAUUUUUUGUUCCAGGUCUGUCAGCUGAAGCUUCGUGCAC
B12: hsa-mir-3138 (structured_RNA)
RNA: GGGACCAUAAGAGGACGCACAGAACUUCGGUGUACGAAGUUUCAGCCCGGGUGCCCACAAGACUGUGGCUGAAGCUUCGUGCAC
B13: hsa-mir-3620 (structured_RNA)
RNA: GGGAGCACUAAAAGGGAAGAGCCUCCAUGGUGUACGAAGUUUCAGCUGGGCCAAGGCUGAAGCUUCGUGCAC
B14: hsa-mir-6796 (structured_RNA)
RNA: GGGAAGUCGUCAGACCAUACGUAGUUAAGGUGUACGAAGUUUCAGCCUGGCUGGUCCAGCCCCUCAGAAGGCUGAAGCUUCGUGCAC
B15: hsa-mir-6763 (structured_RNA)
RNA: GGGAGCGGCAUAAGGGUUCCACCAUAACGGUGUACGAAGUUUCAGCGGAGCAGACAGACCCAACCUCAUGCUCCGCUGAAGCUUCGUGCAC
B16: hsa-mir-1229 (structured_RNA)
RNA: GGGAACUGCAUGGCAAAUCACGGACCUCGGUGUACGAAGUUUCAGCAGAGCGUGGGCUGGGGUUCAGGGACACCCUCUGCUGAAGCUUCGUGCAC
B17: hsa-mir-4776-2 (structured_RNA)
RNA: GGGAGGAUUGAAGCACGCGAGUAACUUAGGUGUACGAAGUUUCAGCCAAGGGCUCUACUGUCCUUUCAGGAGAGCCCUUGGCUGAAGCUUCGUGCAC
B18: hsa-mir-3180-1_3180-3_3180-2 (structured_RNA)
RNA: GGGCCUUUGCCGUCUCCGAAGUAGGAACGGUGUACGAAGUUUCAGCCCCACGUCGCAUGCGCCCCGGGAAAGCGUGGGGCUGAAGCUUCGUGCAC
B19: hsa-mir-4293 (structured_RNA)
RNA: GGGACAGGGUCGCCCAUUUCGUAAUAGUGGUGUACGAAGUUUCAGCGCUGGUGACAUUGCUAAUUCAUUUCACACCAGCGCUGAAGCUUCGUGCAC
B20: hsa-mir-1302-8 (structured_RNA)
RNA: GGGACAGAUUGGUGCGUAUGGUAAACAUGGUGUACGAAGUUUCAGCACAUGCAGUAUUUGGGCUGAAGCUUCGUGCAC
B21: hsa-mir-125a (structured_RNA)
RNA: GGGAAGUGCCUCGACGCAGCAAUACGUCGGUGUACGAAGUUUCAGCCUGUGAGGACAUCCAGGGUCACAGGCUGAAGCUUCGUGCAC
B22: hsa-mir-184 (structured_RNA)
RNA: GGGAAACAAAGGCGGAAAAGCUCCACUGGGUGUACGAAGUUUCAGCCCCAGCUUUGUGACUGUAAGUGUUGGAGCUGAAGCUUCGUGCAC
B23: hsa-mir-5707 (structured_RNA)
RNA: GGGAACUAAUUUAGAGGCUCACCGAGAAGGUGUACGAAGUUUCAGCAGGCACAUAUGUGAACAUUGUACCAGCUGAAGCUUCGUGCAC

Some of the results follow.

One assay has as its target U1A (Homo sapiens, UniProt P09012). The assay can be described thus: FOREST: bead pull-down of RNA structure library v1, barcode microarray; U1A/LIN28A: 20 mM HEPES pH 7.5, 80 mM KCl, 20 mM NaCl, 10% glycerol, 2 mM DTT, 0.1 ug/uL BSA, 4 C; BG4/CIRBP/DHX36: 10 mM Tris-HCl pH 7.5, 100 mM KCl (or LiCl),; high values mean tight binding.
In turn, B1 registered a binding signal of 1.04 z-score.

With B2, the binding signal stood at 1.01 z-score.

For B3, the binding signal turned out to be 1.03 z-score.

As for B4, the binding signal is 0.99 z-score.

In the case of B5, the binding signal was determined as 0.959 z-score.

B6 yielded a binding signal of 0.981 z-score.

Turning to B7, the binding signal worked out at 0.968 z-score.

Molecule B8 came in with a binding signal of 0.953 z-score.

Molecule B9 showed a binding signal of 0.972 z-score.

Consider B10, for which the binding signal was determined as 0.979 z-score.

Turning to B11, the binding signal is 1.03 z-score.

In turn, B12 gave a binding signal of 1.02 z-score.

Molecule B13 gave a binding signal of 1 z-score.

As to B14, the binding signal was 1.02 z-score.

With B15, the binding signal was 0.954 z-score.

The molecule B16 displayed a binding signal of 0.998 z-score.

Regarding B17, the binding signal was 1.04 z-score.

Take B18: the binding signal amounted to 0.96 z-score.

The molecule B19 returned a binding signal of 1.02 z-score.

Consider B20, for which the binding signal amounted to 1 z-score.

The molecule B21 registered a binding signal of 1.02 z-score.

In the case of B22, the binding signal was 1.03 z-score.

B23 displayed a binding signal of 0.984 z-score.

Another assay addresses T1, LIN28A. Described as above.
B1 had a binding signal of 0.421 z-score.

Molecule B2 displayed a binding signal of -0.337 z-score.

In the case of B3, the binding signal turned out to be 1.73 z-score.

In turn, B4 showed a binding signal of -0.94 z-score.

In turn, B5 gave a binding signal of -1.34 z-score.

For B6, the binding signal was -0.497 z-score.

Take B7: the binding signal is -1.45 z-score.

Molecule B8 returned a binding signal of 2.02 z-score.

On to B9, for which the binding signal was found to be 0.586 z-score.

Turning to B10, the binding signal came out at 1.23 z-score.

The molecule B11 gave a binding signal of 0.141 z-score.

B12 had a binding signal of 1.14 z-score.

B13 yielded a binding signal of -0.345 z-score.

In turn, B14 yielded a binding signal of -0.8 z-score.

Regarding B15, the binding signal was -0.405 z-score.

As to B16, the binding signal came to 0.596 z-score.

As to B17, the binding signal was -0.782 z-score.

Consider B18, for which the binding signal is -1.05 z-score.

Molecule B19 registered a binding signal of -0.103 z-score.

For B20, the binding signal stood at 0.309 z-score.

The molecule B21 displayed a binding signal of 0.0846 z-score.

With B22, the binding signal was found to be 1.07 z-score.

The molecule B23 had a binding signal of -1.31 z-score.

For the next assay, the target named is T2, CIRBP. The assay is described as above.
B1 yielded a binding signal of 0.593 z-score.

As for B2, the binding signal is -0.158 z-score.

For B3, the binding signal turned out to be 0.246 z-score.

The molecule B4 gave a binding signal of -0.576 z-score.

As for B5, the binding signal is -0.474 z-score.

B6 showed a binding signal of 0.387 z-score.

Molecule B7 returned a binding signal of -0.101 z-score.

Molecule B8 showed a binding signal of 0.53 z-score.

B9: the binding signal amounted to 0.151 z-score.

In turn, B10 showed a binding signal of 0.0587 z-score.

Consider B11, for which the binding signal stood at 0.564 z-score.

For B12, the binding signal turned out to be 0.812 z-score.

Turning to B13, the binding signal is -0.305 z-score.

In the case of B14, the binding signal was -2.12 z-score.

In the case of B15, the binding signal is -0.842 z-score.

Regarding B16, the binding signal amounted to 0.892 z-score.

On to B17, for which the binding signal was -0.106 z-score.

B18 showed a binding signal of -1.75 z-score.

Molecule B19 had a binding signal of -2.24 z-score.

The molecule B20 came in with a binding signal of 0.978 z-score.

For the molecule B21, the binding signal was -1.14 z-score.

B22 came in with a binding signal of 0.0048 z-score.

In turn, B23 displayed a binding signal of 0.506 z-score.

In another assay the target is T3, DHX36. The description is as above.
The molecule B1 showed a binding signal of 0.014 z-score.

The molecule B2 showed a binding signal of -0.232 z-score.

The molecule B3 registered a binding signal of 0.546 z-score.

B4 registered a binding signal of -0.972 z-score.

In turn, B5 displayed a binding signal of -0.381 z-score.

In turn, B6 yielded a binding signal of 0.496 z-score.

B7 returned a binding signal of -0.52 z-score.

In turn, B8 came in with a binding signal of 0.593 z-score.

B9 gave a binding signal of 0.31 z-score.

B10 came in with a binding signal of -0.178 z-score.

Consider B11, for which the binding signal was determined as 0.414 z-score.

As to B12, the binding signal was -0.0162 z-score.

With B13, the binding signal is -0.969 z-score.

For B14, the binding signal was -0.712 z-score.

B15 registered a binding signal of -0.61 z-score.

The molecule B16 displayed a binding signal of 0.319 z-score.

Regarding B17, the binding signal stood at 1.27 z-score.

B18 gave a binding signal of 0.484 z-score.

For the molecule B19, the binding signal is -0.56 z-score.

The molecule B20 returned a binding signal of 0.202 z-score.

The molecule B21 came in with a binding signal of -0.471 z-score.

As to B22, the binding signal was -0.809 z-score.

For B23, the binding signal is -1.01 z-score.

For the origin of these results see article PMC7723054.
